Earlier results in US11578009B2, “Urea-based blend composition and method for the manufacture thereof” (YARA INTERNATIONAL ASA, priority 2018, dated 2023).

Details: WO2017/168288; urea plus phosphate fertilizer; cited from earlier work

O=S(=O)([O-])[O-].[Mg+2] [MgSO4, magnesium sulphate]
Concentration of cation source at which stabilizing the urease inhibitor is effective: ≥ 1.25%
